Assay: Skin permeation, Franz diffusion cells
Type: in vitro ADME, human
Description: The flux can be measured with a standard procedure using Franz diffusion cells, and the experiments were done on human cadaver skin. With Franz cells, in each Franz diffusion cell a disc (diameter of 25 mm) of human cadaver skin is placed on the receptor compartment. A transdermal delivery system is cut the same size as the skin and placed over the diffusion area in the center of the receptor. The donor compartment is then added and clamped to the assembly. At time 0, receptor medium solution 14 mL is added into the receptor compartment and the cell maintained at 32° C. Samples of the receptor compartment are taken periodically to determine the skin flux and analyzed by HPLC.
Skin permeation of various formulations were tested. The results are provided in FIGS. 1, and 2 and Tables 5 and 6. Higher the amount of the galantamine in the adhesives will increase the penetration, but when over the saturation point, the transdermal system will crystalize, and result a low penetration rate.
When adding an enhancer, it might improve the penetration rate. […] When increase the amount of the enhancer, it might not improve the penetration rate.
A co-solvent helps dissolving the drug in the adhesive but it might also help with the penetration rate.

Substance	Enhancement Ratio
oleoyl macrogol-6 glycerides [Labrafil M 1944CS]	1
tocopherol polyethylene glycol succinate [Vitamin E TPGS]	1

Source: patent US20180008612A1 (priority 2016, published 2018)
